# Source: PubChem BioAssay (National Center for Advancing Translational Sciences (NCATS))
# Hits are enriched below; roughly 2.1% of the tested compounds scored in any of these assays.
# Nrf2 block: blocks Nrf2 signaling. Potency, µM (series often up to 46 µM), inactives show top-dose activity change, negative = inhibition, usual class: inhibitors. AID 504444. A549 ARE-Fluc reporter, luciferase luminescence, 18-24 h. 2.1% of 360,000 active; also: potency is read from the fitted curve at half-maximal effect; % is scaled to controls: 0 for no effect and ±100 for the full control effect; nearly all actives have a fitted effect of over 60% in size
#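 Concentration-response testing used A549 ARE_Fluc cells at 5000 cells/well. Following an 18-24 h compound incubation, viability was read by fluorescence (Ex 405/Em 525) and luciferase output by luminescence.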
# Nrf2 ARE act: activators of Nrf2 (ARE) signaling | Potency, µM (highest dose often 46.1 µM), without a hit: top-dose activation, actives largely listed as activators | AREc32 ARE-luciferase reporter (MCF7-derived line), luminescence, 24 h | 0.31% of 410,000 active; also: potency is read from the fitted curve at half-maximal effect; % of control where 0% means no effect; nearly all actives have a fitted effect of over 65% in size
#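 For detection, Steady-Glo was added and plates sat 30 min at RT; before that, AREc32_Fluc cells grown overnight in OPTI-MEM/5% FBS had been treated with 23 nL compound for 24 hr at 37 deg C.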
# A549 tox: kills or reduces viability of A549 cells in Nrf2 counter-screen | A549 ARE-Fluc cells, CellTiter-Fluor viability, 18-24 h | Potency, µM (series often up to 46 µM), for inactives: at the top dose activity change, negative = cytotoxicity, most hits filed as inhibitors | 0.16% of 390,000 active; also: potency is read from the fitted curve at half-maximal effect; % is scaled to controls: 0 for no effect and ±100 for the full control effect
#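 A549 ARE_Fluc cells in 5% FBS OPTI-MEM were exposed to compounds in concentration-response for 18-24 h at 37 deg C. Viability was read by CellTiter-Fluor fluorescence (Ex 405/Em 525) after 30 min, before the luciferase read.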
# Glioma ERSR ind: ER stress response induction in glioma; Potency, µM, for inactives: top-dose activation, hits mostly activators; AID 602332; U87-MG GRP78 promoter luciferase reporter, 16 h; 0.02% of 420,000 active; also: potency is read from the fitted curve at half-maximal effect; series mostly up to about 76 µM; % of control where 0% means no effect; nearly all actives have a fitted effect of over 35% in size
#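 ERSR induction read as luciferase luminescence (Bright-Glo, 10 min at room temperature) in stably transfected human U87-MG glioma cells exposed to compounds for 16 h, using GRP78 as sensor.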
# miR-21 FLuc: miR-21 reporter, rising signal; Potency, µM (titrated, usually from 38.3 µM), without a hit: at the highest dose reporter change, positive = more light; AID 2288; 340,000 tested, under 10 active; HeLa miR-21 FLuc reporter, luciferase, 48 h; active = well fitted rising curve with a large enough effect; inconclusive = small, poorly fitted or top-dose-only effect; inactive = no such curve, though single readings can be large or run the other way;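 note: % of control where 0% means no effect; miR-21 action dims this reporter so a rising signal means less miR-21 action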
#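 Using DMEM plus 10% FBS, HeLa miR-21-FLuc cells are incubated with test compounds (final up to about 40uM) for 48 hours; firefly luciferase signal is then imaged following reagent-mediated lysis.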
# TSG101-PTAP inh: blocks PTAP/TSG101 interaction to inhibit HIV-1 budding; Q99816; Fluorescence polarization, FITC-PTAP peptide / Tsg101 binding; Potency, µM (titrated, usually from 115 µM), for inactives: at the top dose activity change, negative = inhibition, hits mostly inhibitors; 340,000 tested, under 10 active; AID 493005; active = well fitted inhibition curve with a large enough effect in the main read-out, with a control signal flat, not every such curve was filed as active; inconclusive = small, poorly fitted or top-dose-only effect, or effect the other way, or a change in a side signal; inactive = no such curve, though single readings can be large or run the other way; also: potency is read from the fitted curve at half-maximal effect; % of control where 0% means no effect
#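 Compounds were pin-transferred onto Tsg101 binding domain (10 uM final) in HEPES pH 7.5 buffer, then FITC-PTAP peptide was added at 50 nM final. After 20 min at RT, polarization reported peptide displacement across a qHTS concentration series.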
# The depositor's hits bear a star; ? = inconclusive; / = no result given; [ ] = remark or other dose. Unless noted, calls follow the shape of the dose curve; as a rule, active = well fitted curve in the direction sought with a large enough effect; inconclusive = small, poorly fitted or top-dose-only effect, or another doubt; inactive = no such curve, though single readings can be large; an effect the other way counts as inactive or inconclusive.
# Key to letters – A = Nrf2 block; B = Nrf2 ARE act; C = A549 tox; D = Glioma ERSR ind; E = miR-21 FLuc; F = TSG101-PTAP inh
> O=[N+]([O-])c1ccc(O)c2ncccc12
  A: 3.66µM*; B: -2.1%; C: 13µM*; D: -6.9%; E: ?; F: -1.2%
> O=[N+]([O-])c1cc(Cl)c2cccnc2c1O
  A: ?; B: 11.2%; C: ?; D: -2.2%; E: ?; F: ?
> CC[N+]1(CC(=O)c2ccc(Cl)cc2)CCCCC1
  A: /; B: /; C: /; D: -3.7%; E: /; F: /
> O=C(c1cnn(-c2nccc(-c3ccco3)n2)c1C1CC1)N1CCCCC1c1cccnc1 (stereo not given)
  A: /; B: /; C: /; D: -2.6%; E: /; F: /
> Cc1ccc(NC(=O)C2CCCN(c3ncnc4onc(C)c34)C2)cc1Cl (stereo not given)
  A: 13µM*; B: 2.3%; C: ?; D: -4.2%; E: 0.4%; F: /
> Cc1ccc(Cl)cc1N1CCN(c2ncnc3onc(C)c23)CC1
  A: 20.6µM*; B: 0.4%; C: -19.4%; D: -5.4%; E: ?; F: /
> Brc1cc(Cc2nnc(-c3ccccc3)o2)c(Br)s1
  A: ?; B: 8.91µM*; C: -4.3%; D: 1.5%; E: -1.1%; F: -8.6%
> Cn1cnnc1Sc1ccc(CN2CCOc3ccc(C4=Cc5ccccc5CC4)cc3C2)o1
  A: /; B: /; C: /; D: -5.2%; E: /; F: /
> O=c1cc(COc2ccccc2[N+](=O)[O-])nc2sccn12
  A: 4.5%; B: 8.91µM*; C: -2.8%; D: 0.8%; E: -10.4%; F: -11.5%
> O=C(NC1CCCCCC1)c1ccc([N+](=O)[O-])s1
  A: 2.06µM*; B: 2.9%; C: -4.5%; D: -10.0%; E: /; F: -2.3%
> O=C(NC1CCCC1)c1ccc(Cl)s1
  A: 1.6%; B: 0.1%; C: 0.5%; D: 12.0%; E: -10.2%; F: -6.5%
> COc1cccc(OC)c1CN1CCC2(CCC(CNC(=O)c3ccccc3)O2)CC1 (stereo not given)
  A: /; B: /; C: /; D: -1.7%; E: /; F: /
> COc1ccc(-c2cc(C(=O)NCCc3ccccc3)c3c(-c4ccccc4)[nH]nc3n2)cc1
  A: -5.7%; B: 0.7%; C: ?; D: 0.2%; E: -4.0%; F: /
> COc1ccc(-c2cc(C(=O)NCCc3ccccc3)c3c(-c4ccc(Cl)cc4)[nH]nc3n2)cc1
  A: 23.1µM*; B: -0.8%; C: ?; D: -1.2%; E: 7.6%; F: /
> O=C(Nc1cccc(O)c1)c1cc(-c2ccc3c(c2)OCO3)on1
  A: 14.6µM*; B: -1.1%; C: 0.7%; D: -17.5%; E: 29.7%; F: 2.1%
> CC(=O)SCC(CC(=O)c1ccc(C)cc1)C(=O)O (stereo not given)
  A: /; B: /; C: /; D: -1.6%; E: /; F: /
> Cc1c(C(=S)Nc2ccccc2)cnn1-c1ccc([N+](=O)[O-])cc1
  A: 23.1µM*; B: -0.8%[9.22 µM]; C: -3.4%; D: 1.7%; E: 2.5%; F: -2.2%
> Cc1c(C(=S)Nc2ccccc2)cnn1-c1ccccc1
  A: ?; B: 2.2%; C: -6.5%; D: 3.4%; E: -23.9%; F: -3.7%
> Cc1ccc(C(C)CCN2CCOc3ccc(CN4CCOCC4)cc3C2)o1 (stereo not given)
  A: /; B: /; C: /; D: -3.5%; E: /; F: /
> O=C1NC[C@@H](Cc2cccc3ccccc23)N(CC2(c3ccccc3)CC2)C1=O
  A: 20.6µM*; B: 3.6%; C: ?; D: -3.9%; E: -1.3%; F: -4.5%
> CCCCN1C(=O)C(=O)NC[C@H]1Cc1cccc2ccccc12
  A: /; B: -0.2%; C: /; D: /; E: /; F: /
> COc1ccccc1C(=O)N1CCCC(c2nc(SCCN3CCOCC3)ncc2C)C1 (stereo not given)
  A: /; B: /; C: /; D: -6.0%; E: /; F: /
> CC1OC(CC(=O)O)CC2=C1C(=O)c1c(O)cccc1C2=O (stereo not given)
  A: 20.6µM*; B: -1.1%; C: 14.6µM*; D: -14.2%; E: /; F: -3.7%
> O=C1c2cccc(O)c2C(=O)c2c(O)cccc21
  A: /; B: /; C: /; D: 6.1%; E: -4.3%; F: /
> Cc1cc(C)n(Cc2ccc(C(=O)Nc3cccc(Br)c3)o2)n1
  A: 23.1µM*; B: 0.3%; C: ?; D: 4.7%; E: -11.7%; F: -2.3%
> Cc1nc(N2CCN(Cc3ccc4c(c3)OCO4)CC2)nc2c1C(=O)CC(c1ccco1)C2 (stereo not given)
  A: 11.6µM*; B: 2.6%; C: -12.3%; D: -2.3%; E: -5.7%; F: -1.2%
> O=C(Nc1ccn(-c2ccccc2)n1)c1ccc(Cl)cc1
  A: -3.9%; B: 4.0%; C: 5.0%; D: 4.5%; E: -19.6%; F: -4.4%
> N#Cc1ccc(C(=O)Nc2ccn(-c3ccccc3)n2)cc1
  A: 23.1µM*; B: 2.7%; C: -18.4%; D: -3.3%; E: 13.3%; F: 3.7%
> O=C(CCSc1nc(-c2ccco2)cc(C(F)(F)F)n1)Nc1cccc(O)c1
  A: 4.9%; B: 0.5%; C: 3.0%; D: -2.2%; E: 9.7%; F: /
> Cc1cc(NC(=O)CSc2nc(-c3ccco3)cc(C(F)(F)F)n2)n(-c2ccccc2)n1
  A: ?; B: -0.6%; C: ?; D: -0.3%; E: 14.4%; F: -1.2%
> Cc1cc(NC(=O)CCCSc2nc(-c3ccco3)cc(C(F)(F)F)n2)n(-c2ccccc2)n1
  A: 25.9µM*; B: 3.1%; C: -17.0%; D: -6.9%; E: 7.0%; F: -8.4%
> Cc1ccc(NC(=O)CCSc2nc(-c3ccco3)cc(C(F)(F)F)n2)cc1F
  A: 10.3µM*; B: -0.6%; C: -2.9%; D: -4.5%; E: -5.0%; F: /
> OC(c1cccnc1)c1ccc2c(c1)CN(Cc1ccc(-c3ccccc3Cl)o1)CCO2 (stereo not given)
  A: /; B: /; C: /; D: 2.3%; E: /; F: /
> CC1CCCC(C)N1C(=O)Cn1cc(/C=C2/C(=O)Nc3ccccc32)c2ccccc21 (stereo not given)
  A: 18.4µM*; B: 2.8%; C: 16.4µM*; D: -1.4%; E: 25.9%; F: -3.7%
> O=c1[nH]ncc(N/N=C\c2cccs2)c1Cl
  A: -7.8%; B: 4.47µM*; C: 1.0%; D: 6.6%; E: -24.7%; F: -0.3%
> O=c1[nH]ncc(N/N=C\c2ccncc2)c1Cl
  A: 13.4%; B: 5.9%; C: 2.4%; D: -4.1%; E: -18.0%; F: -3.3%
> Cc1ccc(S(=O)(=O)N(CC(=O)NCCc2ccc(Cl)cc2)c2ccccc2C)cc1
  A: 25.9µM*; B: -0.9%; C: ?; D: -4.0%; E: ?; F: /
> CCC1(C2CCN(C(=O)c3cc(F)ccc3F)CC2)NC(=O)N(CCc2scnc2C)C1=O (stereo not given)
  A: /; B: /; C: /; D: -4.6%; E: /; F: /
> COc1ccc(NC(=O)/C(C#N)=C/c2cc(C)n(-c3ccc(N4CCOCC4)c([N+](=O)[O-])c3)c2C)cc1
  A: 6.51µM*; B: -0.5%; C: -12.3%; D: -2.3%; E: 1.7%; F: -1.4%
> Cc1cc(/C=C(\C#N)C(=O)Nc2ccc(F)cc2)c(C)n1-c1ccc(N2CCOCC2)c([N+](=O)[O-])c1
  A: ?; B: 0.5%; C: -8.4%; D: -5.2%; E: -0.7%; F: -3.2%
> CCOc1ccc(CNS(=O)(=O)c2ccc3c(c2)CCCN3C(C)=O)cc1
  A: /; B: 3.7%; C: 4.4%; D: 0.8%; E: 2.5%; F: /
> COC(=O)N1CCCc2cc(S(=O)(=O)NCc3ccccc3)ccc21
  A: 23.1µM*; B: 2.9%; C: -8.5%; D: -5.5%; E: 3.0%; F: /
> COc1ccc(-n2c(-c3ccc(Br)cc3)c[n+]3c2CCc2ccccc2-3)cc1
  A: 8.2µM*; B: 8.0%; C: -15.5%; D: -2.4%; E: ?; F: -6.4%
> CC(C)=CCC/C(C)=C/COc1c2ccoc2cc2oc(=O)ccc12
  A: -25.6%; B: /; C: 12.3%; D: -2.7%; E: /; F: /
> CCOc1ccccc1C=C1SC(=S)N(CC)C1=O
  A: 6.1%; B: 6.2%; C: 0.8%; D: -1.1%; E: /; F: 0.4%
> COc1cc([N+](=O)[O-])cc(/C=C2/SC(=S)N(Cc3ccccc3)C2=O)c1O
  A: 20.6µM*; B: 1.9%; C: 2.9%; D: -3.1%; E: 18.9%; F: -5.4%

# 3 compounds out of the list above, ordered by the value under miR-21 FLuc, lowest first.
molecule | miR-21 FLuc
Cc1ccc(NC(=O)CCSc2nc(-c3ccco3)cc(C(F)(F)F)n2)cc1F | -5.0%
Cc1cc(/C=C(\C#N)C(=O)Nc2ccc(F)cc2)c(C)n1-c1ccc(N2CCOCC2)c([N+](=O)[O-])c1 | -0.7%
COC(=O)N1CCCc2cc(S(=O)(=O)NCc3ccccc3)ccc21 | 3.0%
